## Measured affinities in a library of Ab-91 heavy chain variants

The measurements come from Engelhart et al. 2022 (doi:10.1038/s41597-022-01779-4) through the FLAb antibody collection.

Target peptide (SARS-CoV-2 spike, HR2 region): PDVDLGDISGINAS

Parent scFv Ab-91: VL joined to VH by the linker GGGGSGGGGSGGGGS. Changes lie in the heavy chain CDRs alone.
VL: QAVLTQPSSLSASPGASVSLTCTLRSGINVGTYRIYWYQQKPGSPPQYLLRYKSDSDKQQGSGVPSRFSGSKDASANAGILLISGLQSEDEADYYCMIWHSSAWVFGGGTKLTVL
VH: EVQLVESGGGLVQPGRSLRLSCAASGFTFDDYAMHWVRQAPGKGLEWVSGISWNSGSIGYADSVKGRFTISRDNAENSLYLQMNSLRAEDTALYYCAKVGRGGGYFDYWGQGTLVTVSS

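The parent was found by panning a naive human phage display library on the peptide. The library (AAYL51) carries one to three amino acid substitutions per variant, with no insertions or deletions. The assay is AlphaSeq: two haploid yeast populations carry antibody and antigen on their surface. The frequency of each diploid, read from paired DNA barcodes, reflects how well the two displayed proteins bind. Each replicate has its own calibration line, from reference interactions of the BCL2 family. Each pool was mated in three replicate cultures.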

Substitutions are numbered in sequence along the VH above, starting at 1 (not Kabat). Every variant below is changed at N54 of the VH (sequential numbering). Values are apparent Kd, the geometric mean of the replicates that gave a signal; lower means stronger binding. "no signal" means that the variant was in the library but no mating with the target was seen in any replicate; the authors take this as a sign of poor binding, and no number exists. Entries are sorted by rising average, undetected variants last. Nonspecific signal, from three strains lacking the peptide, appeared in 21% of pairings of library AAYL51, centred on 34 µM (5% of these signals below 1.8 µM); values are not corrected for it.

changes	Kd (apparent)	seen in
D30G/N54G/K65I	4.6 nM	3/3
W53F/N54E/A61S	11 nM	3/3
N54G	37 nM	3/3
I51C/N54M/Y108E	64 nM	1/3
N54G/I58Q/K65R	240 nM	3/3
N54T/D62S/Y108V	320 nM	3/3
A33N/N54H/S55D	680 nM	1/3
M34A/I51C/N54Y	920 nM	1/3
N54Q/S55Y	1.1 µM	2/3
W53R/N54Q/D107C	1.6 µM	3/3
D31W/N54D/D107G	1.8 µM	1/3
D31N/N54H/A61D	2.8 µM	1/3
F29M/N54Q/V64H	3.9 µM	1/3
S52G/N54Y/Y105F	7.2 µM	3/3
A33T/N54H	9.3 µM	2/3
N54Q/G104K/F106K	12 µM	3/3
N54P/K65M	15 µM	1/3
F27T/G50F/N54Q	17 µM	1/3
N54W/A61P/G102F	17 µM	1/3
N54Q/S63N/G103N	17 µM	2/3
A33G/N54I/G100P	19 µM	1/3
T28A/N54K/S63T	24 µM	1/3
N54G/Y60P/G100M	25 µM	3/3
G26K/G50W/N54M	44 µM	3/3
M34V/N54W/G100D	49 µM	1/3
N54E/Y60Q/G104R	55 µM	1/3
S52W/N54K	61 µM	2/3
A33E/N54F/D62K	63 µM	1/3
I51N/S52H/N54Q	76 µM	1/3
I51N/N54W/Y105I	80 µM	2/3
N54M/G56S/S57C	94 µM	2/3
G50W/N54G/Y60D	100 µM	2/3
N54H/S57Q/G59R	110 µM	1/3
I51D/N54M/Y108V	130 µM	1/3
N54C/G100W	180 µM	3/3
W53H/N54K/K65G	250 µM	3/3
G26D/A33L/N54H	720 µM	1/3
D30K/N54A/S57K	910 µM	1/3
G26D/N54Q/S63P	1.2 mM	1/3
G50I/N54A/G59W	no signal	0/3
N54T/G102C/D107H	no signal	0/3
N54K/D62G/Y105D	no signal	0/3
I51H/N54G/G100K	no signal	0/3
A33P/N54A/G59I	no signal	0/3
D31F/A33V/N54P	no signal	0/3
G26F/N54M/G104Y	no signal	0/3
T28K/N54P/R101D	no signal	0/3
N54L/S63R/G104R	no signal	0/3
I51A/N54F/I58M	no signal	0/3
N54S/G100E/Y105F	no signal	0/3
N54Q/Y60L/G102M	no signal	0/3
N54L/G56A/D62I	no signal	0/3
I51F/W53D/N54Y	no signal	0/3
N54D	no signal	0/3
G26S/F27I/N54W	no signal	0/3
N54I/S57V/V64T	no signal	0/3
N54T/G103S	no signal	0/3
T28D/N54W/S55Q	no signal	0/3
D30Y/A33F/N54D	no signal	0/3
G26E/Y32A/N54T	no signal	0/3
F27R/N54A/Y108T	no signal	0/3
A33R/M34I/N54W	no signal	0/3
H35E/N54Y/Y60F	no signal	0/3

The opening 7 entries, copied out:

changes,Kd (apparent),seen in
D30G/N54G/K65I,4.6 nM,3/3
W53F/N54E/A61S,11 nM,3/3
N54G,37 nM,3/3
I51C/N54M/Y108E,64 nM,1/3
N54G/I58Q/K65R,240 nM,3/3
N54T/D62S/Y108V,320 nM,3/3
A33N/N54H/S55D,680 nM,1/3

For reference, the parent read 72 nM as the reference entry and 7.5 nM as a member of this library.